# T1: cyno TREM-1-His protein (cynomolgus monkey, UniProt A0A2K5VHG8 21-204)
# By UniProt entry, the sequences of proteins in these tests, tags left out. Residues count along the entry.
# UniProt Q9NP99, 21-234 limits assumed: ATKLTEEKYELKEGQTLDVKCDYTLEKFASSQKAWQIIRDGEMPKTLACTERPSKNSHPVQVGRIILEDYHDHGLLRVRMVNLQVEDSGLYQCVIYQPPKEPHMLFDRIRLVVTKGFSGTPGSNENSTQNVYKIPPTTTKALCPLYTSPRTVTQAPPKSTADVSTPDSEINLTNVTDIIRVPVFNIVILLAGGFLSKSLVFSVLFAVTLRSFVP
# UniProt Q9NP99, 21-205: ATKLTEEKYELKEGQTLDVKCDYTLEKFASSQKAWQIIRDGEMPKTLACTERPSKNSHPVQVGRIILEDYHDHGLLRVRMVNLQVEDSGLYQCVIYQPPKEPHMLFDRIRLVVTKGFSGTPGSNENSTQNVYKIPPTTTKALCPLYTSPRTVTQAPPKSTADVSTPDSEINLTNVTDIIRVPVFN
# T1 construct: extracellular domain; Soluble analyte of the Octet assay; not shown: His tag
# T1 sequence: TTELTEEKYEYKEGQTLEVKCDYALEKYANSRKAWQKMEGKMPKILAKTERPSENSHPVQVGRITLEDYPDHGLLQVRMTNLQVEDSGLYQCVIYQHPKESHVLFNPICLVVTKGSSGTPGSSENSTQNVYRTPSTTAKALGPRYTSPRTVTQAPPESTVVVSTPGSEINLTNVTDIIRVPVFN
# T2: cyno TREM-1 (cynomolgus monkey, UniProt A0A2K5VHG8 21-233)
# T2 construct: whole, on cells; also called cynomolgus TREM-1
# T2 sequence: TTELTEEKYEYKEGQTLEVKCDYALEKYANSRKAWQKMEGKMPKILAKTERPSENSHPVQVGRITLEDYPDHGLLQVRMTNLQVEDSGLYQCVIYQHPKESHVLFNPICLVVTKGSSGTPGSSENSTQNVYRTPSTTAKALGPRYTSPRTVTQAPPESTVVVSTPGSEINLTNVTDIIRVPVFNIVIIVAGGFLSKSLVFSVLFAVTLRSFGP
# B1: 57C10 (antibody, V domains shown)
# VH: QVQLVQSGAEVKKPGASVKVSCKASGYTFTRYDINWVRQATGQGLEWMGWLNPNSGNTGQTQKFRGRVTMTRNTSINTAYMELSSLRSEDTAVYYCARGGYTSAWRWYFDLWGRGTLVTVSS
# VL: DIQMTQSPSSLSASVGDRVTITCQASQDINNHLNWYQQKPGKAPKLLIYDVSNLETGVPSSFSGSGCGTDFTFTISSLQPEDIATYFCQQYDKLPLTFGGGTKVEIE
# B2: 50A12 (antibody, V domains shown)
# VH: EVQLVESGGGLVQPGGSLRLSCAASGFTFSSYWMSWVRQAPGKGLEWVANIKQDGSEEYYVDSVKGRFTISRDNAKNSLFLQMNSLRAEDTAVYYCARDYGDSFDYWGQGTLVTVSS
# VL: DIQMTQSPSSVSASVGDRVTITCRASQGIRKWLAWYQQKPGRAPKLLIYAASRLQSGVPSRFSGSGSGTDFTLTISSLRPEDFATYYCLQAHGFPWTFGQGTKVEIK
# B3: 46H7 (antibody, V domains shown)
# VH: EVQLLESGGGMVQPGGSLRLSCAVSGFTFSRYAMSWVRQAPGKGLEWVSEMRGSSGSTYYADSVKGRFTISRDNSKNTLYLQMNSLRVEDTAIYYCAKEFSSNSLFDYWGQGTLVTVSS
# VL: EIVMTQSPATLSVSPGERATLSCRASQSVNSNLAWYQQKPGRAPRLLIYGASTRATGIPARFSGSGSGTEFTLTISSLQSEDFAVYYCQQFYNWPPWTFGQGTKVEIK
# notes: also called 19332
# B4: 66B8 (antibody, V domains shown)
# VH: QVQLVQSGAEVKKPGASVKVSCKASGYTFTGYYMHWVRQAPGQGLEWMGWFKPNSGVTNYAQKFQGRVTMSRDTSISTAYMELSSLRSDDTAVYYCARAGYSTSWKDWFDPWGQGTLVTVSS
# VL: DIQMTQFPSSVSASVGDRVTITCRASQGISRWLAWYQQKQGKAPKLLIYMVSSLQSGVPSRFSGSGSGTDFTLTISSLQPEDFATYYCQQSHNFPITFGQGTRLDIK
# B5: 44A5 (antibody, V domains shown)
# VH: EVQLLESGGGLVQPGGSLRLSCAASGFTFSTYAMNWVRQAPGKGLEWVSTVSGSGRPTYYADSVKGRFTISRDNSKNTLYLQMNSLRAEDTAVYYCAKAYYSNYLFDYWGQGTLVTVSS
# VL: EIVMTQSPAILSVSPGERATLSCRASQSVSSNLAWYQQKPGQAPRLLIYGASTRATGVPARFSGGGSGTDFTLTISSLQSEDFAVYYCQHCKTWPPLTFGGGTKVDLK
# B6: 64D7 (antibody, V domains shown)
# VH: QVQLVQSGAEVKKPGASVKVSCKASGYTFTSYDINWVRQATGQGLEWMGWMNPNRGNTGYVKKFQGRVTMTRNTSISTAYMELSSLRSEDTAVYYCARRRAVYRSSWEWYFDLWGRGTLVTVSS
# VL: DTQMTQSPSSLSASEGDRVTITCQASQDIFNDLNWYQEKPGKAPKLLIYHASNLETGVPSRFSGSGSGTDYTFTISSLQPEDIATYYCQQYGNLPLTFGGGTKVEIK
# B7: 57F5 (antibody, V domains shown)
# VH: EVQLLESGGGLVQPGGSLRLSCAASGFTFSSYAMTWVRQAPGRGLQWVSTISGSGSNTYYADSVKGRFTISRDNSKNTLYLQMSSLRAEDTAVYYCAKEGGSNRYFHHWGQGTLVTISS
# VL: DIQMTQSPSSLSASVGDRVTITCRASQSISSNLNWYQQKPGKAPKLLISAASNLQSGVPSRFSGSESGTDFTLTISSLQSEDFATYYCQQSDSLPLTFGGGTKVEIN
# B8: 49A2 (antibody, V domains shown)
# VH: EVQLVESGGGLVQPGGSLRLSCAASGFTFSSNWMSWVRQAPGKGLDWMASMKQDGSEIYYVDSVKGRFTISRDNAKNSLHLQMNSLRAEDTAVYYCVRGGWRFESWGQGALVTVSS
# VL: EIVMTQSPATLSVSPGERATLSCRASQSVSSNLAWYQQKSGQAPRLLIYGASIRATGIPARVSGSGSGTEFTFTISSLQSEDFAVYYCQQYKNWPLTLGGGTKVEIK
# notes: also called 19333
# What was measured:
# human TREM-1 [1] = target: T3, human TREM-1 (human, UniProt Q9NP99 21-234); test: flow cytometry on HEK293 cells transfected with human TREM-1 and DAP12, supernatant 2.5 ug/mL, geomean fold over irrelevant control antibody
# T3 construct: also called huTREM1; TREM-1 receptor
# human TREM-1 [2] = target: T3, human TREM-1; test: cell-based or functional assay
# [3] = target: T4, recombinant soluble human TREM-1-His protein (human, UniProt Q9NP99 21-205, biotinylated in the bead assays of Tables 6 and 7 (sites not given)); test: limiting antigen assay, biotinylated huTREM-1-His at 7.5 ng/ml on LumAvidin beads, antibody 5 ug/mL, flow cytometry
# T4 construct: also called b-huTREM-1-His; biotinylated human TREM-1-His antigen; not shown: His tag
# [4] = target: T4, recombinant soluble human TREM-1-His …; test: BLI (Octet HTX), antibody captured on anti-human Fc sensor, soluble human TREM-1-His as analyte, 1:1 model
# Protocol: (§1) Briefly, TREM-1 hybridoma supernatants normalized to 10 μg/mL in DMEM null media were prepared by diluting 1:10 in OCTET® assay buffer (10 mM Tris, 0.1% Triton X-100, 150 mM NaCl, 1 mM CaCl₂), 0.1 mg/mL BSA, at pH 7.6) to a final test concentration of 1 μg/mL. Amine reactive second-generation AR2G Biosensors (Molecular Devices) were pre-incubated in 200 μL nanopore water for a minimum of 10 minutes at room temperature before use. The AR2G Biosensors were then activated for 5 minutes in a solution of 20 mM EDC (1-Ethyl-3-[3-dimethylaminopropyl]carbodiimide hydrochloride) (ForteBio) pre-mixed with 10 mM NHS (N-hydroxysulfosuccinimide) (ForteBio) in nanopore water. An in-house generated mouse anti-human Fc monoclonal antibody was coupled to the AR2G Biosensors at 10 μg/mL in 10 mM sodium acetate buffer at pH 5 for 5 minutes, quenched with 1M ethanolamine at pH 8.5 for 5 minutes, and then used to capture antibody from solution. The TREM-1 test antibodies were loaded onto the Biosensors for 5 minutes, and baseline measurements were taken for 1 minute. […] The association of recombinant human TREM-1 with the antibody-loaded sensor was measured for 5 minutes, followed by dissociation in OCTET® buffer for 10 minutes. Biosensors were then regenerated with 10 mM glycine at pH 1.7, reloaded with the same TREM-1 antibodies on the same sensors for 5 minutes, and the same method was used to measure association and dissociation of cyno TREM-1-His protein. Data was referenced using a 0 nM analyte reference sensor. Kinetic analysis was performed using a 1:1 Langmuir model with mass transfer in Genedata Screener software.
# cyno TREM-1-His protein = target: T1, cyno TREM-1-His protein; test: BLI (Octet HTX), antibody captured on anti-human Fc sensor, cyno TREM-1-His as analyte, 1:1 model
# Protocol: as §1
# human TREM-1 [5] = target: T3, human TREM-1; test: flow cytometry competition, competitor PGLYRP1-His/PGN on HEK293 cells with human TREM1/DAP12, antibody 2.5 ug/mL
# cyno TREM-1 = target: T2, cyno TREM-1; test: flow cytometry on HEK293 cells transfected with cyno TREM-1 and DAP12, supernatant 2.5 ug/mL, geomean fold over irrelevant control antibody
Binder,GM Fold (human TREM-1 [1]),"Ab IC50-Human PBMC (Trial 1), TNFα release induced by PGLYRP1/PGN (human TREM-1 [2])","Ab IC50-Human PBMC (Trial 2), TNFα release induced by PGLYRP1/PGN (human TREM-1 [2])",FACS Geomean [3],Kd [4],koff [4],kon [4],koff (cyno TREM-1-His protein),kon (cyno TREM-1-His protein),Receptor-ligand % inhibition (human TREM-1 [5]),GM Fold (cyno TREM-1),Kd (cyno TREM-1-His protein)
B1,1670 fold,8.8 pM,7.2 pM,28500,824 pM,0.000251 s⁻¹,304000 M⁻¹ s⁻¹,0.00024 s⁻¹,187000 M⁻¹ s⁻¹,100%,2430 fold,
B2,2420 fold,3.3 pM,3.6 pM,14600,4850 pM,0.00252 s⁻¹,519000 M⁻¹ s⁻¹,0.00441 s⁻¹,687000 M⁻¹ s⁻¹,100%,2780 fold,
B3,1910 fold,6.3 pM,4.4 pM,38000,457 pM,0.000336 s⁻¹,737000 M⁻¹ s⁻¹,0.00113 s⁻¹,1.14e+06 M⁻¹ s⁻¹,100%,2690 fold,993 pM
B4,1630 fold,31.6 pM,,23800,7980 pM,0.00136 s⁻¹,171000 M⁻¹ s⁻¹,0.000253 s⁻¹,154000 M⁻¹ s⁻¹,85%,1520 fold,
B5,1630 fold,3.5 pM,6.1 pM,36800,404 pM,0.000182 s⁻¹,451000 M⁻¹ s⁻¹,0.00152 s⁻¹,751000 M⁻¹ s⁻¹,100%,2240 fold,
B6,1480 fold,4.3 pM,2.4 pM,24500,< 250 pM,< 0.000176 s⁻¹,705000 M⁻¹ s⁻¹,0.000353 s⁻¹,519000 M⁻¹ s⁻¹,96%,2150 fold,
B7,719 fold,,,25300,< 281 pM,< 0.000176 s⁻¹,627000 M⁻¹ s⁻¹,< 0.000176 s⁻¹,607000 M⁻¹ s⁻¹,100%,2340 fold,
B8,2220 fold,3.1 pM,3.3 pM,28300,767 pM,0.000286 s⁻¹,373000 M⁻¹ s⁻¹,0.00144 s⁻¹,773000 M⁻¹ s⁻¹,100%,2980 fold,

# Reference: patent US20260274913A1 (Amgen, published 2026)
